Experimental findings from PubChem BioAssay AID847 (SRMLSC, 2007) are described below.

Molecules are shown by their SMILES. The entries are a selection whose mix differs from that of the whole data set. Some of these compounds have results that are not shown, active ones among them. The source made the active and inactive calls.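 The calls were made as follows: active = viability at or below the median of all test compounds minus 3 SD, in both replicates if run twice (cut at about 45% in these data); inconclusive = duplicate replicates that disagree with each other; inactive = viability above that cutoff in every replicate.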

For orientation: viability means a read-out of living cells in per cent, often relative to untreated cells.

A short description of this experiment: SK-BR-3 proliferation inhibitors, primary screen, cell-based, human, 24 h (AID 847).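 Also: 100% = median untreated cell wells and 0% = median positive control drug.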 Particulars: SK-BR-3 viability, CellTiter-Glo ATP luminescence, at 10 µM, hits give low values. (In ATP-based viability assays light output follows the ATP content of the culture.)
For `O=C(OC1CN2CCC1CC2)C(CO)(c1ccccc1)c1ccccc1` (stereo unspecified), the viability was inactive: 90%.
